Measured values published in article PMC6058575, “Enhanced anti-hepatocarcinoma efficacy by GLUT1 targeting and cellular microenvironment-responsive PAMAM–camptothecin conjugate” (Drug Delivery, 2017).

What was measured:
[1] = test system: L02 cells; experiment: MTT cytotoxicity; type: cell-based; conditions: 24 h
[2] = Pharmacokinetic study after intravenous administration; type: in vivo; conditions: rats
Method: Twenty-four rats (200 ± 20 g) were randomly divided into four groups and were intravenously administered 1.5 mg/kg doses of CPT, PCC, MPCC, or GPCC. The rats were fasted for 12 h with free access to water before the experiment. Briefly, 0.5 ml of blood was collected in centrifuge tubes at predefined times of 0.083, 0.33, 0.5, 1, 2, 4, 8, 12, and 24 h. Blood samples were centrifuged at 15,000 rpm for 15 min at 4 °C to isolate plasma fractions. Then, 100 μL of methanol was added to the plasma, and the mixture was extracted with 2 mL hexane and 1 mL dichloromethane. The mixture was vortexed for 10 min and centrifuged at 15,000 rpm for 15 min, and the supernatant was collected and dried using a stream of nitrogen gas. The resultant residue was redissolved in 200 μL methanol and stored at −20 °C until further analysis.

[3] = test system: H22 tumor-bearing mice; experiment: In vivo and ex vivo imaging of tumor targeting; conditions: 1 mg/kg CPT i.v.
Method: An H22 tumor-bearing mice model was established based on previously reported method (Li et al., [2014]). Ascitic fluid containing H22 cells was extracted and diluted with PBS (pH 7.0) to 1 × 10^7 cells/ml. The mice (20–22 g) were anesthetized with 5% chloral hydrate and subcutaneously injected with 0.2 ml of cell suspension for armpit tumor implantation. All animal studies were approved by the China Animal Care and Use Committee and carried out according to the Guide for the Care and Use of Laboratory Animals of Beijing University of Chinese Medicine.
Mice were intravenously injected with conjugates at 1 mg/kg CPT concentration. […] Afterward, the tumor-bearing mice were immediately sacrificed by carbon dioxide asphyxiation. Subsequently, major organs (such as tumor, liver, spleen, brain, heart, kidney, and lung) were harvested and visualized.

[4] = test system: H22 tumor-bearing mice; experiment: Toxicity in the efficacy study (body weight, H&E staining); type: in vivo; conditions: 1 mg/kg CPT i.v., day 12
Method: The tumor-bearing mice were randomly divided into five groups (10 per group). The control group mice were administered saline. […] Body weights were recorded daily. At day 12, four mice of each group were sacrificed by carbon dioxide asphyxiation. Tumors, livers and spleens were collected and fixed with 10% paraformaldehyde for 48 h. These tissues were cut into […] sections and processed for H&E staining. The remaining […] in each group were also sacrificed, and the tumors were collected and weighed.

[5] = test system: HepG2 cells; conditions: 24 h, compared among conjugates
[6] = Particle size by dynamic light scattering (DLS); type: physicochemical; conditions: conjugates at 10 mg/ml
Method: The particle sizes and zeta potential of different conjugates at 10 mg/ml were determined using a dynamic light scattering (DLS) particle size analyzer (Nicomp 380 Zeta Potential/Particle Sizer, Santa Barbara, CA). Following staining with 2% sodium phosphotungstate solution, the conjugate morphologies were observed using transmission electron microscopy (TEM) at an accelerating voltage of 100 kV (JEM 1400 JOEL, Akishima City, Tokyo Prefecture, Japan).

[7] = 1.5 mg CPT/kg i.v., two-compartment model

With “Glucose–PEG–PAMAM-s-s–Camptothecin-Cy7 [GPCC]” the cytotoxicity [1] was “lower than that of PCC”, the “AUC(0–t)” value [2, 7] was 7865 ± 1037 ng·h/mL and the “AUC(0–∞)” value [2, 7] was 8250 ± 662 ng·h/mL. The CL [2, 7] was 3.05 ± 0.233 mL/min/kg, the Cmax [2, 7] was 9132 ± 734 ng/mL and the “MRT(0–t)” value [2, 7] was 4.206 ± 0.442 h. For the same substance, the “MRT(0–∞)” value [2, 7] was 6.016 ± 2.83 h, the “V (apparent volume of distribution)” value [2, 7] was 1.881 ± 1.382 L/kg and the t1/2 [2, 7] was 0.28 ± 0.027 h. For the same substance, the “area under the curve” value ([2]; 1.5 mg/kg CPT i.v.) was 7.87 mg/L*h, the “area under the curve relative to CPT suspension” value ([2]; 1.5 mg/kg CPT i.v.) was 10.52 fold and the “area under the curve relative to MPCC conjugate” value ([2]; 1.5 mg/kg CPT i.v.) was 1.68 fold. The “area under the curve relative to PCC conjugate” value ([2]; 1.5 mg/kg CPT i.v.) was 2.19 fold, the “mean residence time (MRT) increase compared with CPT suspension” value ([2]; 1.5 mg/kg CPT i.v.) was “approximately two-fold” and the “t1/2 increase compared with CPT suspension” value ([2]; 1.5 mg/kg CPT i.v.) was “approximately 1.7 fold”. For the same substance, the “maximum plasma drug concentration” value ([2]; 1.5 mg/kg CPT i.v., 5 min post administration) was 9.13 µg/mL, the “fluorescence intensity in tumor sites relative to MPCC conjugate” value ([3]; ex vivo imaging, 12 h) was “five-fold” and the “fluorescence intensity in tumor sites relative to PCC conjugate” value ([3]; ex vivo imaging, 12 h) was “approximately 10 fold”. The “time of maximum distribution at tumor sites” value ([3]; in vivo imaging) was 4 h, the “H&E histology of liver and spleen” value [4] was “limited damage to the liver and spleen” and the “cytotoxicity (inhibition of proliferation)” value [5] was “strongest inhibitory effect”. The “particle size (DLS)” value [6] was 24.0 nm.
